Among the data in ChEMBL document CHEMBL3351997, “Synthesis of novel tylophorine derivatives and evaluation of their anti-inflammatory activity” (ACS Med Chem Lett, 2014) are Activity and IC50 values, retold here.

In one assay the test system is T-cell. Nature of the assay: Induction of Foxp3 expression in B6 Foxp3-GFP mouse CD4-positive T cells assessed as increase in iTregs at 100 nM after 3 days by flow cytometry. (A flow cytometer gives signals particle by particle.)
Assay [1] relates to RAW264.7. Description: Antiinflammatory activity against mouse RAW264.7 cells assessed as inhibition of LPS-induced TNFalpha production after 6 hrs by ELISA.
The nature of assay [2]: Antiinflammatory activity against BALB/c mouse splenocytes assessed as inhibition of LPS-induced TNFalpha production after 4 hrs by ELISA. Particulars: splenocyte, strain BALB/c. A general note: In an ELISA, binding on a coated surface is turned into a signal by an enzyme label.
Assay [3] in a line: Antiinflammatory activity against BALB/c mouse splenocytes assessed as inhibition of LPS-induced TNFalpha production after 24 hrs by ELISA. Particulars: splenocyte, strain BALB/c.
Assay [4] has as its system RAW264.7. Description: Cytotoxicity against mouse RAW264.7 cells after 48 hrs by MTT assay. It is filed as cell-based. The method, boiled down:
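Raw 264.7 murine macrophages were cultured with a range of compound concentrations for 48 h, with vehicle-treated cells as control. The 50% cytotoxic concentration (CC50) was determined, with values representative of three experiments.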
A general note: Tetrazolium dyes change colour on reduction, which living cells bring about.

With `COc1cc2c3c(c4cc(OC)c(OC)cc4c2cc1OC)CN1CCCC1C3.O=C(O)CC(O)(CC(=O)O)C(=O)O` (configuration not stated), the Activity in the assay with T-cell was found to be 0.1%.
Still for that read-out and setting: as for `COc1cc2c3c(c4cc(OC)c(OC)cc4c2cc1OC)CN1CCCC1C3.O=C(O)CC(O)C(=O)O` (configuration not stated), the figure is 4%; as for `COc1cc2c3c(c4cc(OC)c(OC)cc4c2cc1OC)CN1CCCC1C3.O=C(O)CCC(=O)O` (configuration not stated), 48%.
Regarding `COc1cc2c3c(c4cc(OC)c(OC)cc4c2cc1OC)CN1CCC[C@H]1C3` [(S)-TYLOPHORINE], the IC50 with RAW264.7 [1] was determined as 78 nM; in assay [2], 55 nM; in assay [3], 1130 nM; with RAW264.7 [4] it was 274 nM.
`COc1cc2c3c(c4cc(OC)c(OC)cc4c2cc1OC)CN1CCCC1C3.O=[N+]([O-])c1cc([N+](=O)[O-])c(O)c([N+](=O)[O-])c1` (configuration not stated): in the assay on T-cell, the Activity is 47%.
The same measure, in the same setting: as for `COc1cc2c3c(c4cc(OC)c(OC)cc4c2cc1OC)CN1CCCC1C3.Cl` (configuration not stated), the figure is 9%; as for `CC(O)C(=O)O.COc1cc2c3c(c4cc(OC)c(OC)cc4c2cc1OC)CN1CCCC1C3` (configuration not stated), 7%.
On the same count and under the same terms, as for `Br.COc1cc2c3c(c4cc(OC)c(OC)cc4c2cc1OC)CN1CCCC1C3` (configuration not stated), the figure is 40%.
`COc1cc2c3c(c4cc(OC)c(OC)cc4c2cc1OC)CN1CCC[C@@H]1C3`: the Activity in the assay with T-cell was found to be 4%. Moreover, the 50% inhibitory concentration (IC50) in the assay on RAW264.7 [1] amounted to 430 nM; in assay [2], 208 nM; in assay [3], 1220 nM; in the assay on RAW264.7 [4], 823 nM.
For the compound `COc1cc2c3c(c4cc(OC)c(OC)cc4c2cc1OC)CN1CCCC1C3.O=C(O)C(O)C(O)C(=O)O` (configuration not stated), the Activity in the assay on T-cell came out at 32%.

The term IC50 denotes the point on the concentration scale where inhibition reaches its midpoint.
